This passage reports IC50 results from US9296734B2 (AMGEN INC., priority 2013, dated 2016).

Chains of the proteins cited; added tags and fusions are not shown. Residues count along the entry.
UniProt P56817, 46-501: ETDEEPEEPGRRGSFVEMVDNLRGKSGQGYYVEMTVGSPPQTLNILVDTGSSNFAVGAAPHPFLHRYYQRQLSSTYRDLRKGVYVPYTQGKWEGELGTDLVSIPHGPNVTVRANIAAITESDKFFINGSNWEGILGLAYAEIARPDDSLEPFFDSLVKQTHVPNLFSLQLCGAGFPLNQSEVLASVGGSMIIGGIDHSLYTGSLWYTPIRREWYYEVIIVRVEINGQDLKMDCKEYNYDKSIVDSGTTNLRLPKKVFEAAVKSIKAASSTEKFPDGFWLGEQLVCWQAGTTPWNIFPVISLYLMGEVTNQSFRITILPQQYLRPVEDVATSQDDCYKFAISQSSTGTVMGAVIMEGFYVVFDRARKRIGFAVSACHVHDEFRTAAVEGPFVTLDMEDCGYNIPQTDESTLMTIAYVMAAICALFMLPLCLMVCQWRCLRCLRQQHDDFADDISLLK

Molecules are shown by their SMILES. Where two headings read alike, the source gives them in different places.

Assay [1] deals with Beta Secretase enzyme (BACE) (Homo sapiens (Human), UniProt P56817). As to the kind of experiment: In vitro enzymatic BACE FRET assay. The following applies: read-out: BACE 1 FRET assay IC50. Format: biochemical. The procedure:
In Vitro Enzymatic BACE FRET (Fluorescence Resonance Energy Transfer) Assay (Enzyme Assay Data in the Example Table I)
The assay buffer used in this screen is 0.05 M acetate, pH 4.2, 10% DMSO final, 100 uM genapol (which is a nonionic detergent, below its Critical Micelle Concentration). […] This assay is effectively started by the addition of FRET substrate (50 nM) and the combination is incubated for one hour. The FRET assay is terminated with by addition of Tris buffer, which raises the pH to neutrality, and the fluorescence is determined. The FRET substrate is a peptide with commercially available fluorophore and quencher, on opposite sides of the BACE cleavage site.

Assay [2] has as its system Aβ40 in conditioned medium of cells stably expressing Amyloid Precursor Protein (APP). As to the kind of experiment: In vitro BACE cell-based assay (Aβ40 sandwich ELISA). The following applies: Homo sapiens, read-out: HEK cell assay IC50. The procedure: In Vitro BACE Cell-Based Assay
The cell-based assay measures inhibition or reduction of Aβ40 in conditioned medium of test compound treated cells expressing amyloid precursor protein.
Cells stably expressing Amyloid Precursor Protein (APP) were plated at a density of 40K cells/well in 96 well plates (Costar). The cells were cultivated for 24 hours at 37° C. and 5% CO2 in DMEM supplemented with 10% FBS. The test compounds were then added to cells in 10-point dose response concentrations with the starting concentration being either 100 μM or 10 μM. The compounds were diluted from stock solutions in DMSO and the final DMSO concentration of the test compounds on cells was 0.1%. After 24 h of incubation with the test compounds the supernatant conditioned media was collected and the Aβ 40 levels were determined using a sandwich ELISA. The IC50 of the compound was calculated from the percent of control or percent inhibition of Aβ 40 as a function of the concentration of the test compound.
The sandwich ELISA to detect Aβ 40 was performed in 96 well microtiter plates, which were pre-treated with goat anti-rabbit IgG (Pierce). The capture and detecting antibody pair that were used to detect Aβ 40 from cell supernatants were affinity purified pAb40 (Biosource) and biotinylated 6E10 (Signet Labs Inc.), respectively. The optimal concentration for the pAb40 antibody was 3 μg/ml in Superblock/TBS (Pierce) that was supplemented with 0.05% Tween 20 (Sigma).
Cellular supernatants were incubated with the capture antibody for 3 h at 4° C., followed by 3 wash steps in TBS-tween (0.05%). The detecting antibody incubation was for 2 h at 4° C., again followed by the wash steps as described previously. The final readout of the ELISA is Time-Resolved Fluorescence (counts per minute) using Delfia reagents Streptavidin-Europium and Enhancement solutions (Perkin Elmer) and the Victor 2 multilabel counter (Perkin Elmer).

[3] abbreviates: HEK293, average IC50, HEK cells.
Where [4] appears, read: average IC50, BACE enzyme assay.
[5] abbreviates: HEK293, average IC50, HEK cell assay.

On to `COc1cnc(C(=O)Nc2cc(F)c(F)c([C@]3(C)C[C@@H](C(F)(F)F)OC(N)=N3)c2)c(C)c1` [Example 202, N-(3-((4S,6S)-2-amino-4-methyl-6-(trifluoromethyl)-5,6-dihydro-4H-1,3-oxazin-4-yl)-4,5-difluorophenyl)-5-methoxy-3-methylpicolinamide], for which the IC50 turned out to be 61 nM in assay [1] (average) and 35 nM in assay [2] (HEK293, HEK cells, average).

Regarding `COc1ccc(C(=O)Nc2cccc([C@]3(CF)C[C@@H](C(F)(F)F)OC(N)=N3)c2)nc1` [Example 145, N-(3-((4S,6S)-2-amino-4-(fluoromethyl)-6-(trifluoromethyl)-5,6-dihydro-4H-1,3-oxazin-4-yl)phenyl)-5-methoxypicolinamide], the IC50 in assay [1] (average IC50) is 334 nM; in assay [2] (setting [3]), 55 nM.

For the compound `Cc1cc(NC(=O)c2ccc(F)cn2)cc([C@]2(CF)C[C@@H](C(F)(F)F)OC(N)=N2)c1F` [Example 223, N-(3-((4S,6S)-2-amino-4-(fluoromethyl)-6-(trifluoromethyl)-5,6-dihydro-4H-1,3-oxazin-4-yl)-4-fluoro-5-methylphenyl)-5-fluoropicolinamide], the IC50 in assay [1] (average) was determined as 57 nM; in assay [2] (HEK293, HEK cells, average) it was 29 nM.

As for `COc1ccc(C(=O)Nc2ccc(F)c([C@]3(CF)C[C@@H](C(F)(F)F)OC(N)=N3)c2)nc1` [Example 49, N-(3-((4S,6S)-2-amino-4-(fluoromethyl)-6-(trifluoromethyl)-5,6-dihydro-4H-1,3-oxazin-4-yl)-4-fluorophenyl)-5-methoxypicolinamide], the results for the IC50 in assay [1] (average IC50) and in assay [2] (setting [3]) were 29 nM and 19.7 nM, respectively.

`COc1cnc(C(=O)Nc2cnc(F)c([C@]3(C)C[C@@H](C(F)(F)F)OC(N)=N3)c2)c(Cl)c1` [Example 69, N-(5-((4S,6S)-2-amino-4-methyl-6-(trifluoromethyl)-5,6-dihydro-4H-1,3-oxazin-4-yl)-6-fluoropyridin-3-yl)-3-chloro-5-methoxypicolinamide]: the IC50 was determined as 48.5 nM in assay [1] (average IC50) and 25.3 nM in assay [2] (setting [3]).

For `N#Cc1cnc2c(Nc3ccc(F)c([C@]4(CF)C[C@@H](C(F)(F)F)OC(N)=N4)c3)ncc(F)c2c1` [Example 10, 8-((3-((4S,6S)-2-amino-4-(fluoromethyl)-6-(trifluoromethyl)-5,6-dihydro-4H-1,3-oxazin-4-yl)-4-fluorophenyl)amino)-5-fluoro-1,7-naphthyridine-3-carbonitrile], the IC50 in assay [1] (average IC50) was found to be 10.1 nM; in assay [2] (setting [3]), 108 nM.

In the case of `C#CCOc1cnc(C(=O)Nc2cnc(F)c([C@]3(C)C[C@@H](C(F)(F)F)OC(N)=N3)c2)cn1` [Example 73, N-(5-((4S,6S)-2-amino-4-methyl-6-(trifluoromethyl)-5,6-dihydro-4H-1,3-oxazin-4-yl)-6-fluoropyridin-3-yl)-5-(prop-2-yn-1-yloxy)pyrazine-2-carboxamide], the IC50 in assay [1] (average) is 4.7 nM; in assay [2] (HEK293, HEK cells, average), 2.5 nM.

`C[C@@]1(c2cc(NC(=O)N3CC=C(C#CC4CC4)CC3)ccc2F)C[C@@H](C(F)(F)F)OC(N)=N1` [Example 124, N-(3-((4S,6S)-2-amino-4-methyl-6-(trifluoromethyl)-5,6-dihydro-4H-1,3-oxazin-4-yl)-4-fluorophenyl)-4-(cyclopropylethynyl)-5,6-dihydropyridine-1(2H)-carboxamide]: the IC50 in assay [1] (setting [4]) was determined as 1680 nM; in assay [2] (setting [5]), 525 nM.

In the case of `C[C@@]1(c2cc(NC(=O)N3CCC(C(F)F)CC3)ccc2F)C[C@@H](C(F)(F)F)OC(N)=N1` [Example 122, N-(3-((4S,6S)-2-amino-4-methyl-6-(trifluoromethyl)-5,6-dihydro-4H-1,3-oxazin-4-yl)-4-fluorophenyl)-4-(difluoromethyl)piperidine-1-carboxamide], the IC50 in assay [1] (setting [4]) was 2450 nM; in assay [2] (setting [5]) it was 826 nM.

For `NC1=N[C@](CF)(c2cc(NC(=O)c3ccc(C#CC4CC4)cn3)cc(F)c2F)C[C@@H](C(F)(F)F)O1` [Example 158, N-(3-((4S,6S)-2-amino-4-(fluoromethyl)-6-(trifluoromethyl)-5,6-dihydro-4H-1,3-oxazin-4-yl)-4,5-difluorophenyl)-5-(cyclopropylethynyl)picolinamide], the IC50 in assay [1] (setting [4]) worked out at 21 nM; in assay [2] (setting [5]), 379 nM.

Take `COc1cnc2c(Nc3cc(F)c(F)c([C@]4(C)C[C@@H](C(F)(F)F)OC(N)=N4)c3)nccc2c1` [Example 179]: the IC50 in assay [1] (setting [4]) turned out to be 178 nM; in assay [2] (setting [5]), 224 nM.

`Cc1cc(OC(F)F)cnc1C(=O)Nc1cc(F)c(F)c([C@]2(C)C[C@@H](C(F)(F)F)OC(N)=N2)c1` [Example 174, N-(3-((4S,6S)-2-amino-4-methyl-6-(trifluoromethyl)-5,6-dihydro-4H-1,3-oxazin-4-yl)-4,5-difluorophenyl)-5-(difluoromethoxy)-3-methylpicolinamide]: the IC50 in assay [1] (average) amounted to 29 nM; in assay [2] (HEK293, HEK cells, average), 26 nM.

As for `NC1=N[C@](CF)(c2cc(Oc3ccccn3)ccc2F)C[C@@H](C(F)(F)F)O1` [Example 101, (4S,6S)-4-(2-fluoro-5-(pyridin-2-yloxy)phenyl)-4-(fluoromethyl)-6-(trifluoromethyl)-5,6-dihydro-4H-1,3-oxazin-2-amine], the IC50 in assay [1] (setting [4]) turned out to be 560 nM; in assay [2] (setting [5]), 2110 nM.

Regarding `Cc1cc(C#N)cnc1C(=O)Nc1cc(Cl)c(F)c([C@]2(C)C[C@@H](C(F)(F)F)OC(N)=N2)c1` [Example 210, N-(3-((4S,6S)-2-amino-4-methyl-6-(trifluoromethyl)-5,6-dihydro-4H-1,3-oxazin-4-yl)-5-chloro-4-fluorophenyl)-5-cyano-3-methylpicolinamide], the IC50 in assay [1] (average) is 11 nM; in assay [2] (HEK293, HEK cells, average), 34 nM.

As to `COc1cnc(C(=O)Nc2ccc(F)c([C@]3(C)C[C@@H](C(F)(F)F)OC(N)=N3)n2)c(Cl)c1` [Example 80, N-(6-((4S,6S)-2-amino-4-methyl-6-(trifluoromethyl)-5,6-dihydro-4H-1,3-oxazin-4-yl)-5-fluoropyridin-2-yl)-3-chloro-5-methoxypicolinamide], the IC50 in assay [1] (setting [4]) worked out at 254 nM; in assay [2] (setting [5]), 51 nM.

Regarding `NC1=N[C@](CF)(c2cc(NC(=O)c3ncc(C(F)(F)F)cc3Cl)ccc2F)C[C@@H](C(F)(F)F)O1` [Example 44, N-(3-((4S,6S)-2-amino-4-(fluoromethyl)-6-(trifluoromethyl)-5,6-dihydro-4H-1,3-oxazin-4-yl)-4-fluorophenyl)-3-chloro-5-(trifluoromethyl)picolinamide], the IC50 in assay [1] (setting [4]) came out at 74 nM; in assay [2] (setting [5]), 88 nM.

In the case of `NC1=N[C@](CF)(c2cc(Oc3cc(C(F)(F)F)ccn3)ccc2F)C[C@@H](C(F)(F)F)O1` [Example 99, (4S,6S)-4-(2-Fluoro-5-((4-(trifluoromethyl)pyridin-2-yl)oxy)phenyl)-4-(fluoromethyl)-6-(trifluoromethyl)-5,6-dihydro-4H-1,3-oxazin-2-amine], the IC50 stood at 3170 nM in assay [1] (average IC50) and 3760 nM in assay [2] (setting [3]).

As to `C#CCOc1cnc(C(=O)Nc2ccc(F)c([C@]3(C)C[C@@H](C(F)(F)F)OC(N)=N3)c2)cn1` [Example 45, N-(3-((4S,6S)-2-amino-4-methyl-6-(trifluoromethyl)-5,6-dihydro-4H-1,3-oxazin-4-yl)-4-fluorophenyl)-5-(prop-2-yn-1-yloxy)pyrazine-2-carboxamide], the IC50 in assay [1] (average) is 2.3 nM; in assay [2] (HEK293, HEK cells, average), 0.5 nM.

For the compound `COc1cnc(C(=O)Nc2ccc(F)c([C@]3(CF)C[C@H](C(F)(F)F)OC(N)=N3)c2)cn1` (racemic) [Example 25, N-(3-((4S,6R)-2-amino-4-(fluoromethyl)-6-(trifluoromethyl)-5,6-dihydro-4H-1,3-oxazin-4-yl)-4-fluorophenyl)-5-methoxypyrazine-2-carboxamide], the IC50 in assay [1] (average IC50) is 813 nM; in assay [2] (setting [3]), 2370 nM.

As for `C[C@@]1(c2nc(NC(=O)c3ncc(C(F)(F)F)cc3Cl)ccc2F)C[C@@H](C(F)(F)F)OC(N)=N1` [Example 81, N-(6-((4S,6S)-2-amino-4-methyl-6-(trifluoromethyl)-5,6-dihydro-4H-1,3-oxazin-4-yl)-5-fluoropyridin-2-yl)-3-chloro-5-(trifluoromethyl)-picolinamide], the IC50 turned out to be 124 nM in assay [1] (average IC50) and 18.6 nM in assay [2] (setting [3]).
